Target: Mu-type opioid receptor (Homo sapiens, UniProt P35372)
Experiment: Agonist activity at human recombinant mu opioid receptor expressed in CHO cells by [35S]GTP-gamma-S binding assay relative to DAMGO
Assay type: functional, cell-based

Amino acid sequences for entries named in this document (tags omitted).
UniProt P35372, whole entry, looked up: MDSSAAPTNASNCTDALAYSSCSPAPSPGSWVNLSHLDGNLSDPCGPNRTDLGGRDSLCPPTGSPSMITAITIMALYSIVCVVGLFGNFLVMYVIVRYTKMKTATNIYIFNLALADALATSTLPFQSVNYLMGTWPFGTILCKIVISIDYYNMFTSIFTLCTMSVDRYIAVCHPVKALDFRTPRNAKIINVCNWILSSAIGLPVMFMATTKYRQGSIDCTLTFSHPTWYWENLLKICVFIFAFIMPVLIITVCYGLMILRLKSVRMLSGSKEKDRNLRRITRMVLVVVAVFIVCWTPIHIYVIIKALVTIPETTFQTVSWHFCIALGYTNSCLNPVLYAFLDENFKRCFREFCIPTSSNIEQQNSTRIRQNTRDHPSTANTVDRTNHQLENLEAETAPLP

Structure (SMILES): CN(C(=O)Cc1ccc(Cl)c(Cl)c1)C1CCCCC1N1CCCC1 (stereo unspecified)
- Emax: 35%
